Species on record: Homo sapiens
Experiment: Selectivity ratio of Ki for LCK (unknown origin) to Ki for GST-tagged recombinant full length human ITK

Ratio Ki: 340
SMILES: CC1(C)CCc2c(C(=O)Nc3cnn(Cc4ccccc4)c3)n[nH]c2C1

— ChEMBL document CHEMBL3425442, “Tetrahydroindazoles as Interleukin-2 Inducible T-Cell Kinase Inhibitors. Part II. Second-Generation Analogues with Enhanced Potency, Selectivity, and Pharmacodynamic Modulation in Vivo” (J Med Chem, 2015)
